Test system: HCAVSMCs

For poly(propylacrylic acid) [PPAA], the “polymer cleared from cells within 5 days” value was ~ 90%.
